{"sequences": {"note": "Amino acid sequences for entries named in this document (tags omitted). A change or cut given only in a name is not applied to a line headed by its entry.", "UniProt O75164": "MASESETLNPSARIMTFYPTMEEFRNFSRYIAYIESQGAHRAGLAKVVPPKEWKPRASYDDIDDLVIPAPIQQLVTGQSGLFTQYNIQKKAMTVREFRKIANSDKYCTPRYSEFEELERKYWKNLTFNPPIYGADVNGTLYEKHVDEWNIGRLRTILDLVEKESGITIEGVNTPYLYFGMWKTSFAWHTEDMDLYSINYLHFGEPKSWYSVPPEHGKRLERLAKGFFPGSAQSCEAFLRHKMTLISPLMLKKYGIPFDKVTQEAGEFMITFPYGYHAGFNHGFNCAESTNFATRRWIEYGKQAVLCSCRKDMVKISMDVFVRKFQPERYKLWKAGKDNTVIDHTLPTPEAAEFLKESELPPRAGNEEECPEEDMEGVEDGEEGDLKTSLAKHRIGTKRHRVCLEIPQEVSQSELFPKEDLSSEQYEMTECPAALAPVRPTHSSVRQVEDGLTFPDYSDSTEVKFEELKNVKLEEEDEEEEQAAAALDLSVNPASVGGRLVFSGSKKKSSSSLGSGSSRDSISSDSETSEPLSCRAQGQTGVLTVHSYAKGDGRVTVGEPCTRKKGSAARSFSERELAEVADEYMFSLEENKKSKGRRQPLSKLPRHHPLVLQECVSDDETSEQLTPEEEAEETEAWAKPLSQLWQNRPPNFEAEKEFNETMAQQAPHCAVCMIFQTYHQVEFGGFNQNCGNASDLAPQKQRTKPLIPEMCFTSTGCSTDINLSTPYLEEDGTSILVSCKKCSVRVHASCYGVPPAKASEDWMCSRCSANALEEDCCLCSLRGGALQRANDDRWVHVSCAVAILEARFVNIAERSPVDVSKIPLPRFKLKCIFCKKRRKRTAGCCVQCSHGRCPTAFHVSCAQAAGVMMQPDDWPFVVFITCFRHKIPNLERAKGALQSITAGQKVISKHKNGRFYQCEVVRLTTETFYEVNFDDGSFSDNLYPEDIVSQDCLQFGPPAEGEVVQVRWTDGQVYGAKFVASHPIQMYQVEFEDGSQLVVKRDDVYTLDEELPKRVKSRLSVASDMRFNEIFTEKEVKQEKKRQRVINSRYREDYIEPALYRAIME"}, "source": "PubChem BioAssay AID504339", "about": "(National Center for Advancing Translational Sciences (NCATS), 2011)", "note": "Only a part is listed here, and it is no random draw. Records with an inconclusive call do not appear. The source made the active and inactive calls. The call rests on the fitted dose curve; in most records, active means well fitted inhibition curve with a large enough effect; inconclusive means small, poorly fitted or top-dose-only effect; inactive means no such curve, though single readings can be large or run the other way. On the % scale 0 is the no-effect control and ±100 the full control effect; potency means the concentration at half of the fitted maximal effect."}
{"molecular_target": "Lysine-specific demethylase 4A (Homo sapiens) (UniProt O75164)", "assay": "qHTS Assay for Inhibitors of JMJD2A-Tudor Domain; further: nearly all actives have a fitted effect of over 50% in size", "conditions": "AlphaScreen JMJD2A-Tudor / H3K4me3 peptide binding; series mostly up to 114 µM; activity change, negative = inhibition: at the top concentration"}
{"smiles": "Cc1ccc(NCCc2c([N+](=O)[O-])cc([N+](=O)[O-])cc2[N+](=O)[O-])cc1", "Potency": "active: 15.8 µM"}
{"smiles": "COc1cc(C2NCCC3(OCCO3)C2(C)C)cc(OC)c1OC", "note": "(centres undefined)", "activity change, negative = inhibition": "inactive: -16.3%"}
{"smiles": "CCOP(=O)(Nc1cccc2ccccc12)OCC", "activity change, negative = inhibition": "inactive: -18.2%"}
{"smiles": "O=[As](O)(O)c1cccnc1", "activity change, negative = inhibition": "inactive: -14.7% [at 11.4 µM]"}
{"smiles": "COc1cc(C(=O)NCC2(N3CCOCC3)CCCCC2)cc(Cl)c1OC(C)C", "activity change, negative = inhibition": "inactive: -15.8% [at 11.4 µM]"}
{"smiles": "CS(=O)(=O)c1ccc(Cl)c(NC(=O)COC(=O)C(O)(c2ccccc2)c2ccccc2)c1", "activity change, negative = inhibition": "inactive: -22.1%"}
{"smiles": "O=C(OC1CN2CCC1CC2)c1ccc(Cl)cc1", "note": "(centres undefined)", "activity change, negative = inhibition": "inactive: 0%"}
{"smiles": "Cc1cccc(OCC(=O)OC2CN3CCC2CC3)c1", "note": "(centres undefined)", "activity change, negative = inhibition": "inactive: -28.3%"}
{"smiles": "O=[As](O)(c1cccc(O)c1)c1cccc(O)c1", "activity change, negative = inhibition": "inactive: 0.341%"}
{"smiles": "NC(=O)Nc1ccc([As](=O)(O)O)cc1", "activity change, negative = inhibition": "inactive: -6.38%"}
{"smiles": "O=[N+]([O-])c1ccc2c(c1)nnn2O", "activity change, negative = inhibition": "inactive: -25%"}
{"smiles": "CN(C)C(=O)c1cc([N+](=O)[O-])cc2c1-c1c(cc([N+](=O)[O-])cc1[N+](=O)[O-])C2=O", "activity change, negative = inhibition": "inactive: -34.3%"}
{"smiles": "CN(C(=O)Cc1ccc(Cl)c(Cl)c1)[C@H]1CC[C@@]2(CCCO2)C[C@@H]1N1CCCC1", "activity change, negative = inhibition": "inactive: -8.63%"}
{"smiles": "N#CCCN(C(=O)COC(=O)C(O)(c1ccccc1)c1ccccc1)c1ccc(F)cc1", "activity change, negative = inhibition": "inactive: -14.5%"}
{"smiles": "CCOP1(=S)c2c(C)nn(CCC#N)c2N=C(c2ccc(F)cc2)N1C", "note": "(centres undefined)", "activity change, negative = inhibition": "inactive: -16.3%"}
{"smiles": "CN(C(=O)Cc1ccccc1)[C@@H]1CC[C@]2(CCCO2)C[C@H]1N1CCCC1", "activity change, negative = inhibition": "inactive: -23.7%"}
{"smiles": "CS(=O)(=O)c1cc([N+](=O)[O-])c2no[n+]([O-])c2c1", "Potency": "active: 5.62 µM"}
{"smiles": "CCOP1(=S)c2c(C)nn(CCC#N)c2N=C(c2ccccc2F)N1C", "note": "(centres undefined)", "activity change, negative = inhibition": "inactive: -13.3%"}
{"smiles": "O=P(Nc1nccs1)(Oc1ccccc1)Oc1ccccc1", "activity change, negative = inhibition": "inactive: -7.19%"}
{"smiles": "O=P(Nc1nccs1)(c1ccccc1)c1nc2ccccc2s1", "note": "(centres undefined)", "Potency": "active: 4.47 µM"}
{"smiles": "O=C(O)COc1ccc([As](=O)(O)O)cc1[N+](=O)[O-]", "activity change, negative = inhibition": "inactive: -15.2%"}
{"smiles": "Nc1ccccc1[As](=O)(O)c1ccccc1", "activity change, negative = inhibition": "inactive: -3.34%"}
{"smiles": "O=P1(Nc2ncccn2)COc2ccccc2OC1", "activity change, negative = inhibition": "inactive: -24.4% [at 57.1 µM]"}
{"smiles": "O=[As](O)(c1cccs1)c1cccs1", "activity change, negative = inhibition": "inactive: -7.04%"}
{"smiles": "Cc1ccc(OCC(=O)OC2CN3CCC2CC3)cc1", "note": "(centres undefined)", "activity change, negative = inhibition": "inactive: 2.65%"}
{"smiles": "NS(=O)(=O)c1cccc(NC(=O)COC(=O)C(O)(c2ccccc2)c2ccccc2)c1", "activity change, negative = inhibition": "inactive: -12.2%"}
{"smiles": "O=P1(Nc2ccc(Br)cn2)COc2ccccc2OC1", "activity change, negative = inhibition": "inactive: -3.6%"}
{"smiles": "Nc1cccc([As](=O)(O)c2ccccc2)c1", "activity change, negative = inhibition": "inactive: -14.3%"}
{"smiles": "Cc1nn(-c2ccccc2)c2c1P(=O)(N1CCOCC1)N(C)C(c1ccccc1)=N2", "note": "(centres undefined)", "activity change, negative = inhibition": "inactive: -16.3%"}
{"smiles": "Cc1ccc(C(=O)OC2CN3CCC2CC3)cc1", "note": "(centres undefined)", "activity change, negative = inhibition": "inactive: -8.7%"}
{"smiles": "CC1CCC(C(C)C)C(OP(=O)(Nc2ccccn2)c2ccccc2)C1", "note": "(centres undefined)", "activity change, negative = inhibition": "inactive: -14.3%"}
{"smiles": "O=C(/C=C/c1ccccc1)OC1CN2CCC1CC2", "note": "(centres undefined)", "activity change, negative = inhibition": "inactive: 1.81%"}
{"smiles": "CCCC1OP(=O)(Nc2ccccc2)OCC1CC", "note": "(centres undefined)", "activity change, negative = inhibition": "inactive: -6.29%"}
{"smiles": "CN(C)C1(CNC(=O)c2ccc(S(C)(=O)=O)cc2)CCCCC1", "activity change, negative = inhibition": "inactive: -0.73%"}
{"smiles": "COc1ccccc1CNC(=O)COC(=O)C(O)(c1ccccc1)c1ccccc1", "activity change, negative = inhibition": "inactive: -13.5%"}
{"smiles": "CC1(CBr)Cn2c(nc3ccccc3c2=O)S1", "note": "(centres undefined)", "activity change, negative = inhibition": "inactive: -4.19%"}
{"smiles": "CN(C(=O)Cc1ccc(Cl)c(Cl)c1)[C@@H]1CCCC[C@H]1N1CCCC1", "activity change, negative = inhibition": "inactive: -6.47%"}
{"smiles": "CC(C)/C=N\\N=C(\\N)N[N+](=O)[O-]", "activity change, negative = inhibition": "inactive: -7.69%"}
{"smiles": "CCOP(=O)(Nc1ccc(C)cn1)OCC", "activity change, negative = inhibition": "inactive: -7.04%"}
{"smiles": "CCC1=CC2Cc3nc4ccc(Cl)cc4c(N)c3C(C1)C2", "note": "(centres undefined)", "activity change, negative = inhibition": "inactive: -27.1%"}
{"smiles": "O=P1(Nc2ccccn2)COc2ccccc2OC1", "activity change, negative = inhibition": "inactive: 13.4% [at 57.1 µM]"}
{"smiles": "CCOP(=O)(NC(=NC(C)c1ccccc1)NC(C)c1ccccc1)OCC", "note": "(centres undefined)", "activity change, negative = inhibition": "inactive: -13.6%"}
{"smiles": "Clc1n[nH]nc1-c1nn[nH][15n]1", "Potency": "active: 2.82 µM"}
{"smiles": "CC(C)(C)C(=O)NC(Sc1ncccn1)C(Cl)(Cl)Cl", "note": "(centres undefined)", "activity change, negative = inhibition": "inactive: -3.4%"}
